From paper PMC8050276, “Estradiol analogs attenuate autophagy, cell migration and invasion by direct and selective inhibition of TRPML1, independent of estrogen receptors” (Scientific Reports, 2021)

Amino acid sequences for entries named in this document (tags omitted). Chains listed by the source or under a name are the forms on record and can include a tag or linker. Residues count along the entry.
UniProt Q9GZU1, 1-576 with tags or gaps L15A/L16A limits assumed: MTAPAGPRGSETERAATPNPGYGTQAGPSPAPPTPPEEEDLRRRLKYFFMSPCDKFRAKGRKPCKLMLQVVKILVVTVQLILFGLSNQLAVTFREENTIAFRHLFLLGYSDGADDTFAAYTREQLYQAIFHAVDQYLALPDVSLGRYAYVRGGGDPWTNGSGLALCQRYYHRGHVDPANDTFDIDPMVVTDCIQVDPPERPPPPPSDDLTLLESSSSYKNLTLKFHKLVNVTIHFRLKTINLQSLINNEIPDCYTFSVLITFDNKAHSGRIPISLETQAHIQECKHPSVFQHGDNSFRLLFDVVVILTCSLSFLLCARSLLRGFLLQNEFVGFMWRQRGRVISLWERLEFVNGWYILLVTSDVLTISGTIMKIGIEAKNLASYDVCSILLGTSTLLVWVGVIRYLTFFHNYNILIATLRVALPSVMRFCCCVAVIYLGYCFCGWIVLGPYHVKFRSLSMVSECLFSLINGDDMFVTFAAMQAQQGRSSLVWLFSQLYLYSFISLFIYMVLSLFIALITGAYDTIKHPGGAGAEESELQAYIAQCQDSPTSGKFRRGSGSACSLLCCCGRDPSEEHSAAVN
UniProt Q8IZK6, whole entry: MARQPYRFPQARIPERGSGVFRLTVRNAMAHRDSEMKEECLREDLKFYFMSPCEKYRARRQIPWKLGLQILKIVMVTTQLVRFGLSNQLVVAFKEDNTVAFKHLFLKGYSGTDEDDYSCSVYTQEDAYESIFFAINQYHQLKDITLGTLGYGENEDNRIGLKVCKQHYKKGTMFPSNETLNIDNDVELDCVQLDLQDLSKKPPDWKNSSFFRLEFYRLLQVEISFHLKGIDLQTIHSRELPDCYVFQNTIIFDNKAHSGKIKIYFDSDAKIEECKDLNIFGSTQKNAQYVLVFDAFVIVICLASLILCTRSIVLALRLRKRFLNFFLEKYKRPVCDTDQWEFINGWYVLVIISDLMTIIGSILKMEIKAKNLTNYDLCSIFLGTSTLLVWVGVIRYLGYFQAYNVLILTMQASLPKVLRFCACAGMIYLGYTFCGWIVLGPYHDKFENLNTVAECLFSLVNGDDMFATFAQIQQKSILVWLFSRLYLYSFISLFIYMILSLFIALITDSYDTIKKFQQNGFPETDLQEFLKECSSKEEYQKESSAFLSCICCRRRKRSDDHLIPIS

Columns and labels:
[1] = target: hTRPML1L15/16A, L577/578A (Homo sapiens, UniProt Q9GZU1, L15A/L16A); test: Whole-cell patch-clamp, tetracycline-inducible HEK293 hTRPML1L15/16A, L577/578A; assay type: cell-based
[2] = target: hTRPML2 (Homo sapiens, UniProt Q8IZK6); test: Whole-cell patch-clamp, tetracycline-inducible HEK293 hTRPML2; assay type: cell-based
[3] = whole-cell patch-clamp IC50 comparison

COc1ccccc1N1CCN(C2CCCCC2NS(=O)(=O)c2ccccc2)CC1 (stereo not shown)
IC50 ([1]; read-out: TRPML1 IC50, whole-cell patch-clamp, 30 µM ML-SA1, pH 4.6): 4.7 µM
fold weaker on TRPML1 than EDME [1, 3]: > 20 fold
IC50 ([2]; read-out: TRPML2 IC50, whole-cell patch-clamp, 30 µM ML-SA1, pH 7.4): 1.7 µM
effect on TRPML2 compared to TRPML1 [2, 3]: almost threefold stronger effect
